Test results reported in US20080103162A1, “Antipruritics” (priority 2001, published 2008).

System: male ddY mice
Assay: compound 48/80-induced scratching behavior, intravenous administration (Test Example 1)
Type: in vivo
Settings: intravenously administered five minutes before compound 48/80 (50 μg/0.1 ml, subcutaneous, back), FIG. 1 to FIG. 3

CCn1c(=O)n([C@@H]2CCN(CC3CCCCCCC3)C[C@H]2CO)c2ccccc21.Cl
scratching behavior suppressing effect (number of scratching behavior for 30 minutes): strong scratching behavior suppressing effect
